Results on 1 compound are retold here after BindingDB's records for 17539825 (Chemdiv, 2007).

Protein sequences, listed by entry. Tags and fused reporters are not part of them. Residues count along the entry.
UniProt P17948, 27-1338 limits assumed: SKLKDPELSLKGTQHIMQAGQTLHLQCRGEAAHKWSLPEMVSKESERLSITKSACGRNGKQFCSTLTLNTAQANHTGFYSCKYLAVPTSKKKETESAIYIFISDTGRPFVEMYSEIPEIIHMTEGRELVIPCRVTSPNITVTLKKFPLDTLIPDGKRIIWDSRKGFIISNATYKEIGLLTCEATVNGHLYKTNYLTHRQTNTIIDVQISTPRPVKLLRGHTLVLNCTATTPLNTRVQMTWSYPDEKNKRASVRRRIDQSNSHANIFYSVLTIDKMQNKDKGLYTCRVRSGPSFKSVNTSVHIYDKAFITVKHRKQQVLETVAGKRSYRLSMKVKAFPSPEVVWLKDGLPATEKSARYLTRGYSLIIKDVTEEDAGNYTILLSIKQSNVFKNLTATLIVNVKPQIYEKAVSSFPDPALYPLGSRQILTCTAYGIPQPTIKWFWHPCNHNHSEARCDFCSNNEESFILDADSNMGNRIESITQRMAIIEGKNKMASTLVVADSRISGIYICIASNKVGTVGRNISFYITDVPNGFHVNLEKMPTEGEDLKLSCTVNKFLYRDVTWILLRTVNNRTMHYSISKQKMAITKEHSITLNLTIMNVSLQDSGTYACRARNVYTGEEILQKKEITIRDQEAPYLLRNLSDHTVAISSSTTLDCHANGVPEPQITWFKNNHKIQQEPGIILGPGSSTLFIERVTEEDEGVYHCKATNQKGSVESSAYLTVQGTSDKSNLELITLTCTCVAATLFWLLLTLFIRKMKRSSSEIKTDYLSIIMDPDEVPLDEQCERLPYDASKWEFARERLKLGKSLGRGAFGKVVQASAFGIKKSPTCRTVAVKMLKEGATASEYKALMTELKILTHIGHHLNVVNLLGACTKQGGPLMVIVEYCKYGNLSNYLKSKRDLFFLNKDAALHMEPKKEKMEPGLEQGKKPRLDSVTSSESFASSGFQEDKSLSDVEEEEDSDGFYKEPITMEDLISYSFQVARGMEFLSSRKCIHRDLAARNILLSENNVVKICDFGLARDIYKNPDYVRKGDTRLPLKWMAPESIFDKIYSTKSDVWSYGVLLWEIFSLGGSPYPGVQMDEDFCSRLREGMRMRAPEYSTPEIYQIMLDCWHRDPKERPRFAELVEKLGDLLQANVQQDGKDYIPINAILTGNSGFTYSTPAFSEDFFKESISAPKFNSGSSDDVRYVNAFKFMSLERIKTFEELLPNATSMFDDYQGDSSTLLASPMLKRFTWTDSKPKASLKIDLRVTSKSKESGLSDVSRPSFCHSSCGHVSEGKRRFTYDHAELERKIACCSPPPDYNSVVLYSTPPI
UniProt P35968, 20-1356 limits assumed: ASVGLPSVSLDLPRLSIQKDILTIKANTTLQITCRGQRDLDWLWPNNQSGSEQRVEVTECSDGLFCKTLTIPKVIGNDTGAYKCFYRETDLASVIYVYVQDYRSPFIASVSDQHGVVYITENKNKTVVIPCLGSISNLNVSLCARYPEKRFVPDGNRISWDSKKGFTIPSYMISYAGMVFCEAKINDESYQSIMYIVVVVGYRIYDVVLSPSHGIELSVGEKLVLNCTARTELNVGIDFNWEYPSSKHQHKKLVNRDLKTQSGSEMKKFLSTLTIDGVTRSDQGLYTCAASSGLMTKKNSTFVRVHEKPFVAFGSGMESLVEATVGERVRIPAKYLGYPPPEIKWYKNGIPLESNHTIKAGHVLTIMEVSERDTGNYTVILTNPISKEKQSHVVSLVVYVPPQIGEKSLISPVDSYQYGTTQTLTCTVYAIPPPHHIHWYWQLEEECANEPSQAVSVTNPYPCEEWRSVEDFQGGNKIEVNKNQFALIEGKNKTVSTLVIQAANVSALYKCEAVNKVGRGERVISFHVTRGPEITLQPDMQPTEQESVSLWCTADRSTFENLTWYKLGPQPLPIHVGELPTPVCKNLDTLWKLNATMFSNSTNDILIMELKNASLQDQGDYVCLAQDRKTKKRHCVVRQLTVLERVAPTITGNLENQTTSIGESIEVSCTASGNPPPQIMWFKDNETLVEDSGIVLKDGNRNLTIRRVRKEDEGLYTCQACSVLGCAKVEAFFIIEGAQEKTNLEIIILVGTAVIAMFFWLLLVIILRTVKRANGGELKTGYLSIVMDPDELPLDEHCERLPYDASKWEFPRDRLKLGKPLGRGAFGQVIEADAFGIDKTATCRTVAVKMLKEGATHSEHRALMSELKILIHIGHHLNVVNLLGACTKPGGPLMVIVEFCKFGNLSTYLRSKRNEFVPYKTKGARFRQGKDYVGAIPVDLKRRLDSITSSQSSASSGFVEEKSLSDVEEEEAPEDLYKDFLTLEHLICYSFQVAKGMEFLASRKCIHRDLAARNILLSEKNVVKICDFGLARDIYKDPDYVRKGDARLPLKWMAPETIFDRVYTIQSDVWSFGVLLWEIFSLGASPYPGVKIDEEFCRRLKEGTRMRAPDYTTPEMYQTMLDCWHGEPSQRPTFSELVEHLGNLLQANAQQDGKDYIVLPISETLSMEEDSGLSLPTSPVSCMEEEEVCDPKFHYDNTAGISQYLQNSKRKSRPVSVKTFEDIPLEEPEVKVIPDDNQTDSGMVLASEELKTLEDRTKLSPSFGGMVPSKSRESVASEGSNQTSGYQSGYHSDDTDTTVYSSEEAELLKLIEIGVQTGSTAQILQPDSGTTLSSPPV

Each structure is given as a SMILES string.

Test [1] addresses Vascular endothelial growth factor receptor 1 (Homo sapiens, UniProt P17948). To be noted: pH 7.5.
Test [2] addresses Vascular endothelial growth factor receptor 2 (Homo sapiens, UniProt P35968). The note with it: pH 7.5.

In the case of `O=P(O)(O)OP(=O)(O)n1cnc(-c2ccccc2Nc2ccncc2)n1`, the values for the IC50 in test [1] and in test [2] were 940 nM and 780 nM, respectively.
